Data on one substance can be found in US8450118B2, “Method for detecting binding interactions between membrane proteins and analytes in a homogenous assay” (Molecular Sensing, Inc., priority 2009, dated 2013).

Where two headings read alike, the source gives them in different places.

One assay deals with T1, rabbit B1 receptor (Oryctolagus cuniculus, UniProt P48748).
T1 sequence (P48748 1-352): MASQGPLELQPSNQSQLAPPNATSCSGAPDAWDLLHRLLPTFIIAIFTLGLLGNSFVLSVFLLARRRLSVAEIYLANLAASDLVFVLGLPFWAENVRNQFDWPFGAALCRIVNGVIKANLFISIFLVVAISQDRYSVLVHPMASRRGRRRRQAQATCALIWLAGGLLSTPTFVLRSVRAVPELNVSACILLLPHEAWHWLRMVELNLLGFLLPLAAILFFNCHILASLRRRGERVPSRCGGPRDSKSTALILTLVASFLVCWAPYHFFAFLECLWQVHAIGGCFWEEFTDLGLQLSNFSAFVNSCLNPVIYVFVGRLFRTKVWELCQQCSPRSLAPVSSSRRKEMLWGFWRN
The conditions noted are these: cited from earlier work.

The target of the next assay is T2, Human B1 receptor (Homo sapiens, UniProt P46663).
T2 sequence (P46663 1-353): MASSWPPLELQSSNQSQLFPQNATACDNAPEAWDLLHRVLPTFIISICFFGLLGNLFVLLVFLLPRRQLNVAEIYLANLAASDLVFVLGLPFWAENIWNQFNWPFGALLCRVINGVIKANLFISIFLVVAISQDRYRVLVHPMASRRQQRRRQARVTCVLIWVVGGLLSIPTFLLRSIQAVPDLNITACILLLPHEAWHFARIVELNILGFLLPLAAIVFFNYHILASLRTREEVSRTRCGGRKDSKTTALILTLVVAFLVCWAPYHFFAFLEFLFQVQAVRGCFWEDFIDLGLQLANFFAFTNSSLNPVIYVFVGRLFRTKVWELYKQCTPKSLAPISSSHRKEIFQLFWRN
The settings on record: cited from earlier work.

Assay [1] deals with T3, human Bradykinin B1 Receptor membrane fraction (Homo sapiens, UniProt P46663).
T3 construct: purchased PerkinElmer ES-091-M400UA; CHO is inferred from the CHO cell membranes used as control
T3 sequence (P46663 1-353): T2 sequence (P46663 1-353)
The assay can be described thus: Heterogeneous BSI assay with membrane bound to channel surface (Experiment 1). The format is binding. From the text: The system can be used to determine the on- and off-kinetics of binding with a flowing system. In the flowing system, one molecule can be attached to the surface with chemistry. A running buffer is then flowed over the activated surface. Once the signal is stable, a second molecule that binds to the first is flown thought the system in increasing concentrations. When the sample interacts with the surface, there is an increase in signal until equilibrium is reached. When the running buffer is flowed back through, the bound molecules disassociate and the signal decreases and then equilibrates on the running buffer. For the reaction of the two molecules, an increase in signal is observed and then equilibrates. For this part of the curve, a ‘one phase exponential association’ equation is used [Y=Ymax*(1−exp(−K*X))] where K is the K observed. For the dissociation of the two molecules, a decrease in signal is observed until an equilibrium is reached. For this part of the curve, a ‘one phase exponential decay’ equation is used [Y=Span*exp(−K*X)+Plateau], where the K is the K off. The K on value is calculated by subtracting the K off from the K observed then dividing the value by the concentration of the binding ligand {Kon=(Kobs−Koff)/[ligand]}. The KD value is collected by dividing the K off by the K on [KD=Koff/Kon]. […]

Assay [2] has as its target T4, Bradykinin B1 Receptor membranes (Homo sapiens, UniProt P46663).
T4 construct: purchased PerkinElmer ES-091-M400UA; CHO is inferred from the CHO cell membranes used as control
T4 sequence (P46663 1-353): T2 sequence (P46663 1-353)
As to the kind of experiment: Homogeneous BSI assay employing laminar flow, bare capillary (Experiment 3). The settings on record: bolus/laminar flow, same concentrations as Experiment 2 (FIG. 14). The assay is classed as binding. As for the experimental part: (§1) This assay makes use of the following commercially available reagents: Bradykinin B1 Receptor PerkinElmer Product number ES-091-M400UA. MEMBRANES: 1×400 units/1000 μl frozen aliquot. PACKAGING BUFFER: 50 mM Tris-HCl pH 7.4, 0.5 mM EDTA, 10 mM MgCl2, 10% sucrose STORAGE CONDITIONS: Store at −80° C. Avoid repeated freeze-thaw. UNIT SIZE: 50 μg protein/unit. EXPRESSION LEVEL (BMax): 0.24 pmol/mg membrane protein. PROTEIN CONCENTRATION: 20 mg/ml.
The interaction of the Lys-(Des-Arg9)-Bradykinin and the membranes are set up in a homogeneous manner. The Lys-(Des-Arg9)-Bradykinin is serially diluted to 50 nM to 6 pM and then split. The membranes are diluted to 20 μg/mL and then mixed 1:1 with one set of the split Lys-(Des-Arg9)-Bradykinin concentrations. Concentration of the samples and membranes are therefore halved to 25 nM to 3 pM and 10 μg/mL respectively. The mixture was then allowed to incubate for six hours. Buffer was added 1:1 to the other set to form the controls without the analyte.
Sample is prepared as described in Experiment 2.
A bare capillary is inserted into the system. The running buffer is flown through the capillary until a stable signal is obtained. The homogeneous samples (both control and assay) are then injected into the system and the change from baseline is monitored. The signal obtained from the control samples is subtracted from the assay.

Assay [3] addresses T4, Bradykinin B1 Receptor membranes. As to the kind of experiment: Homogeneous BSI assay with passivated surface (Experiment 2). The conditions noted are these: membranes 10 μg/mL, six hours incubation, capillary passivated with CHO cell membranes (FIG. 12); read-out: Kd, one site binding (hyperbola) fit. Here is the method:
as §1
The passivated surface is prepared as follows. A surface comprising a lipid-like layer is made using the same protocol as described above for the heterogeneous assay in (experiment 1) section 4.2.1.
Then, a control membrane preparation (one that will not bind the target analyte) is bound to the surface, again as described above for creating the surface for the heterogeneous assay. This surface is used for the experiments.
The interaction of the Lys-(Des-Arg9)-Bradykinin and the membranes are set up in a homogeneous manner. The Lys-(Des-Arg9)-Bradykinin is serially diluted to 50 nM to 6 pM and then split. The membranes are diluted to 20 μg/mL and then mixed 1:1 with one set of the split Lys-(Des-Arg9)-Bradykinin concentrations. Concentration of the samples and membranes are therefore halved to 25 nM to 3 pM and 10 μg/mL respectively. The mixture was then allowed to incubate for six hours. […]

For the substance “Lys-(Des-Arg^9)-Bradykinin/Lys-(Des-Arg^10)-kallidin [Lys-(Des-Arg9)-Bradykinin]”, the “fold higher affinity for Lys-BK (1-8) relative to BK(1-8)” value at rabbit B1 receptor was around 150 fold; at Human B1 receptor it was “approximately 2,000 fold”. Moreover, the Kd in assay [1] (flowing system, kinetic analysis KD=Koff/Kon (FIG. 10), control subtracted, read-out: Kd calculated from Kobs and Koff) is 0.41 nM; in assay [1] (maximum signal of each concentration plotted versus concentration (FIG. 9), control CHO membranes subtracted, read-out: endpoint analysis, one site binding fit value), 0.053 nM; in assay [2], 0.15 nM; in assay [3], 0.18 nM.
